Source: PubChem
This is a sample that favours compounds with a hit; in the whole collection about 3.7% have one here.
miR-21 reporter: miR-21 reporter, rising signal. 340,000 tested, under 10 active. Potency, µM (highest dose often 38.3 µM), for the others: at the highest dose reporter change, positive = more light. HeLa miR-21 FLuc reporter, luciferase, 48 h. AID 2288; active = well fitted rising curve with a large enough effect; inconclusive = small, poorly fitted or top-dose-only effect; inactive = no such curve, though single readings can be large or run the other way;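 further: % of control where 0% means no effect; miR-21 action dims this reporter so a rising signal means less miR-21 action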
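Compounds were titrated across several concentrations (up to approximately 40 uM) and incubated 48 hours with HeLa miR-21-FLuc reporter cells (miR-21 target sequence downstream of FLuc, endogenous miR-21). Readout was firefly luciferase luminescence after lytic detection reagent.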
Nrf2 activator: Nrf2 pathway activation | 410,000 tested, 0.31% active | Potency, µM (highest dose often 46.1 µM), for inactives: at the highest dose activation, most hits filed as activators | AID 624171 | AREc32 ARE-luciferase reporter (MCF7-derived line), luminescence, 24 h; note: potency is the fitted concentration of half-maximal effect; % of control where 0% means no effect; nearly all actives have a fitted effect of over 65% in size
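Steps: seed AREc32_Fluc cells (1000/well, 5% FBS OPTI-MEM); incubate overnight at 37 deg C; add 23 nL compound; incubate 24 hr; add Steady-Glo; hold 30 min RT; read luminescence.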
ClpP mod: qHTS Assay for Activators of ClpP. ATP-dependent Clp protease proteolytic subunit (Bacillus subtilis (strain 168)), P80244. purified B. subtilis ClpP, FRET peptide cleavage, 20 min. Potency, µM (top dose mostly 57.5 µM), for inactives: at the top dose activity change, negative = active. 340,000 tested, 1.9% active. AID 651965, 2013; active = well fitted falling curve with a large enough effect; inconclusive = small, poorly fitted or top-dose-only effect; inactive = no such curve, though single readings can be large or run the other way; note: potency is the fitted concentration of half-maximal effect; the source files actives as falling curves though it sought activators and does not explain the sign; nearly all actives have a fitted effect of over 65% in size
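Buffer: 100 mM Tris/HCl pH8, 100 mM KCl, 0.05% low protease BSA, 2.5% glycerol, 0.01% Tween-20. ClpP 10 microg/mL final; 20 min RT; delta FRET normalized to ADEP and DMSO controls.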
TCR activator: T cell receptor activation | 330,000 tested, under 10 active | primary human leukocytes, anti-CD3, IL-2 HTRF, 48 h | Potency, µM (series often up to 9.22 µM), for the others: at the top dose activation of IL-2 secretion, actives largely listed as activators; note: % of control where 0% means no effect
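Compounds are tested in HTS on primary human leukocytes co-incubated with a-CD3 beads for 48 hr. IL-2 output is measured by time-resolved FRET.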
Nrf2 block: blocks Nrf2 signaling; A549 ARE-Fluc reporter, luciferase luminescence, 18-24 h; Potency, µM (doses to about 46 µM), for the others: top-dose activity change, negative = inhibition, actives largely listed as inhibitors; 360,000 tested, 2.1% active; note: potency is the fitted concentration of half-maximal effect; % is set by controls: 0 for no effect and ±100 for the full control effect; nearly all actives have a fitted effect of over 60% in size
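A549 ARE_Fluc cells, 5000/well, 5% FBS OPTI-MEM; compounds in dose-response, 18-24 h at 37 °C/5% CO2; CellTiter-Fluor viability read (Ex 405/Em 525), then BugLite luciferase luminescence = Nrf2 activity.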
A549 viability: A549 cytotoxicity, counter-screen for Nrf2 inhibitors; A549 ARE-Fluc cells, CellTiter-Fluor viability, 18-24 h; Potency, µM (titrated, usually from 46 µM), for inactives: top-dose activity change, negative = cytotoxicity, most hits filed as inhibitors; 390,000 tested, 0.16% active; AID 504648; note: potency is the fitted concentration of half-maximal effect; % is set by controls: 0 for no effect and ±100 for the full control effect
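A549 ARE_Fluc cells in 5% FBS OPTI-MEM were exposed to compounds in concentration-response for 18-24 h at 37 deg C. Viability was read by CellTiter-Fluor fluorescence (Ex 405/Em 525) after 30 min, before the luciferase read.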
Starred values were filed as active, the others as inactive; u = inconclusive; x = not tested or not shown; [ ] = another dose, or the depositor's remark. Unless noted, calls come from the whole dose curve; as a rule, active = well fitted curve in the direction sought with a large enough effect; inconclusive = small, poorly fitted or top-dose-only effect, or another doubt; inactive = no such curve, though single readings can be large; an effect the other way counts as inactive or inconclusive.

Letter code: A = miR-21 reporter; B = Nrf2 activator; C = ClpP mod; D = TCR activator; E = Nrf2 block; F = A549 viability
(1) CC(/C=C/c1ccco1)=N/NC(=O)c1ccccc1Cl
  A = -34% | B = u | C = 1% | D = 0% | E = u | F = -1%

(2) O=C(N/N=C/C=C/c1ccco1)c1ccccc1Cl
  A = -2% | B = 11µM* | C = x | D = 4% | E = 14% | F = 3%

(3) O=C(N/N=C/C=C/c1ccco1)c1cccc([N+](=O)[O-])c1
  A = 1% | B = 2.2µM* | C = 1% | D = 1%[46.1 µM] | E = 12% | F = 8%

(4) COc1ccc(C(=O)OCC(=O)NCC2CCCO2)c(F)c1 (stereo unspecified)
  A = x | B = 0% | C = 1% | D = 11% | E = 0% | F = -3%

(5) COc1ccc(OC)c2c(C)cc(N3CCN(C(=O)c4ccc(C)cc4)CC3)nc12
  A = -2% | B = -1% | C = x | D = -2% | E = -7% | F = 2%

(6) COc1ccc(OC)c2c(C)cc(N3CCN(C(=O)c4ccc(F)cc4)CC3)nc12
  A = -10% | B = 4% | C = 20µM* | D = -6% | E = x | F = -6%

(7) COc1ccccc1-c1noc2c1C(=O)NCC2
  A = x | B = -1% | C = -1% | D = x | E = x | F = x

(8) Cc1cc2c(s1)c1cnn(Cc3ccc(F)cc3)c(=O)c1n2C
  A = x | B = x | C = x | D = x | E = -13% | F = -8%

(9) CCSC1=C(C#N)C(c2ccc(Cl)cc2)C2=C(CCCC2=O)N1 (stereo unspecified)
  A = 14% | B = 0% | C = -20% | D = 0% | E = 21µM* | F = u

(10) CC(=O)NC(c1ccc(F)c(F)c1)c1nc(-c2cnn(C)c2)cs1 (stereo unspecified)
  A = x | B = -1% | C = 1% | D = x | E = x | F = x

(11) CCCCC1(CC(=O)OC)C(=O)N(c2ccccc2)N(c2ccccc2)C1=O
  A = -1% | B = 0% | C = 28µM* | D = 1%[46.1 µM] | E = -11% | F = 0%

(12) CCOC(=O)COc1ccc(C)cc1C(=O)c1ccn2nc(-c3ccc(C)cc3)cc2n1
  A = 4% | B = -1% | C = -15% | D = x | E = 7% | F = -2%

(13) CCN(CC(=O)NCc1cccs1)C(=O)c1cccc(S(=O)(=O)Nc2ccccc2Cl)c1
  A = x | B = 0% | C = 35µM* | D = -6% | E = -12% | F = -1%

(14) CC(C)c1ccc(/C=C2\SC(=O)N(CC(=O)NC3CCS(=O)(=O)C3)C2=O)cc1 (stereo unspecified)
  A = -20% | B = 10% | C = -1% | D = -2% | E = 22% | F = -4%

(15) CCC(c1nnnn1C1CCCCC1)N(Cc1ccco1)Cc1cc2ccc(OC)cc2[nH]c1=O (stereo unspecified)
  A = -6% | B = 2% | C = u | D = 1% | E = 23µM* | F = u

(16) Cc1ccc2cc(C(c3nnnn3C3CCCC3)N(Cc3ccco3)Cc3cccs3)c(=O)[nH]c2c1 (stereo unspecified)
  A = 15% | B = 2% | C = u | D = -2% | E = u | F = -19%

(17) CCC(C)(C)n1nnnc1C(C(C)C)N(Cc1cccnc1)Cc1ccco1 (stereo unspecified)
  A = 0% | B = 0% | C = 2% | D = 2% | E = u | F = 0%

(18) CCC(C)(C)n1nnnc1C(C(C)C)N(Cc1ccco1)Cc1cc2cc3c(cc2[nH]c1=O)OCO3 (stereo unspecified)
  A = -3% | B = 6% | C = 32µM* | D = 7% | E = u | F = u

(19) COc1cccc(CNC(=O)COC(=O)CCc2cc(OC)c(OC)c(OC)c2)c1
  A = x | B = 0% | C = -2% | D = -22% | E = 5% | F = 15%

(20) Cc1ccc(CNC(=O)NCc2noc3ccc(C)cc23)cc1
  A = -7% | B = 6% | C = -4% | D = x | E = -2% | F = -2%

(21) CCc1ccc(/C=C/C(=O)c2c(C)cc(C)[nH]c2=O)cc1
  A = u | B = -2% | C = 0% | D = -4% | E = 18µM* | F = -23%

(22) CC(=O)N1CCOc2ccc(S(=O)(=O)NC[C@H]3O[C@@H](n4cnc5c(N)ncnc54)[C@H](O)[C@@H]3O)cc21
  A = x | B = -1% | C = 2% | D = -3%[46.1 µM] | E = 8% | F = -7%

(23) Cc1c(CCC(=O)O)c(=O)oc2cc3occ(C(C)(C)C)c3cc12
  A = -31% | B = 4% | C = x | D = -2% | E = 18µM* | F = -1%

(24) Cc1ccc(Cl)cc1N1CCN(C(=O)c2ccc3c(c2)N(Cc2ccccc2F)C(=O)c2ccccc2S3(=O)=O)CC1
  A = 10% | B = -1% | C = -4% | D = x | E = 14% | F = -16%

(25) O=S(=O)(c1cccs1)N1CCN(CCOc2ccc(Cl)cc2)CC1
  A = x | B = -1% | C = -1% | D = -7% | E = 15µM* | F = -24%

(26) Cc1ccc(NS(=O)(=O)c2cc3c(cc2N2CCC2)NC(=O)CC3)cc1C
  A = x | B = x | C = x | D = x | E = u | F = 10%

(27) O=C(NC1CC(=O)N(c2ccc(Cl)cc2)C1)c1cccs1 (stereo unspecified)
  A = 5% | B = 0% | C = -2% | D = x | E = x | F = 4%

(28) COc1ccc(OC)c(N=c2oc3cc(O)ccc3cc2C(N)=O)c1
  A = -42% | B = 1% | C = 28µM* | D = 5% | E = 10% | F = 13%

(29) COc1ccc(NC(=O)c2cc3ccc(O)cc3o/c2=N\O)cc1
  A = 7% | B = 3%[9.22 µM] | C = x | D = 10% | E = 2.1µM* | F = u

(30) COc1ccc2cc(C(N)=O)c(=Nc3ccccc3)oc2c1
  A = -44% | B = 2% | C = x | D = -3% | E = u | F = 1%

(31) COc1ccc(Br)cc1C1C(C(=O)Nc2ccc(C)cc2C)=C(C)Nc2ncnn21 (stereo unspecified)
  A = -2% | B = 0% | C = -4% | D = x | E = -3% | F = 1%

(32) COCc1cc(=O)[nH]c(Nc2nc3ccc(C)cc3o2)n1
  A = -36% | B = 13µM* | C = 1% | D = 0% | E = u | F = u

(33) O=C(NCC1OCCc2ccccc21)c1ccc(NC(=O)c2ccccc2Cl)cc1 (stereo unspecified)
  A = 22% | B = 0% | C = 1% | D = -6%[46.1 µM] | E = 21µM* | F = 2%

(34) O=C(CS(=O)CC(=O)Nc1ccc(Cl)cc1)NCC1OCCc2ccccc21 (stereo unspecified)
  A = -1% | B = 1% | C = 11µM* | D = 4% | E = 6% | F = 2%

(35) COc1cc(Cl)c(C)cc1NC(=O)c1c(C)oc2nc(C)nc(N3CCCC3)c12
  A = u | B = 0% | C = 1% | D = x | E = u | F = -5%

(36) COc1ccc(NC(=O)Cc2csc(COc3cccc(C)c3)n2)c(OC)c1
  A = -9% | B = 5% | C = -2% | D = x | E = u | F = -2%

(37) Cc1ccn(CCC(=O)NC2CCCc3c2cnn3-c2cccc(C)c2C)n1 (stereo unspecified)
  A = 0% | B = 0% | C = -1% | D = -4% | E = -16% | F = -3%

(38) Cc1cccc(-n2ncc3c2CCCC3NC(=O)CCc2ccncc2)c1C (stereo unspecified)
  A = 17% | B = -1% | C = -1% | D = 0% | E = 5.8µM* | F = -7%

(39) CC(c1nc2ccccc2[nH]1)n1c(=O)c(-c2cccnc2)nc2ccccc21 (stereo unspecified)
  A = x | B = x | C = -23% | D = x | E = x | F = x

(40) CC(c1nc2ccccc2[nH]1)n1c(=O)c(-c2cccs2)nc2ccccc21 (stereo unspecified)
  A = x | B = x | C = 22µM* | D = x | E = x | F = x

(41) O=c1[nH]c2ccccc2nc1-c1cccs1
  A = -38% | B = 11% | C = 14µM* | D = 0% | E = u | F = -10%

(42) Cc1ccc(C(=O)NCCCNC(=O)COc2ccc(Cl)cc2)cn1
  A = -1% | B = 0% | C = x | D = -6% | E = -10% | F = 2%

Sorted by molecular weight (high to low): part of the list above
Letter code: A = miR-21 reporter; B = Nrf2 activator; C = ClpP mod; D = TCR activator; E = Nrf2 block; F = A549 viability
(31) COc1ccc(Br)cc1C1C(C(=O)Nc2ccc(C)cc2C)=C(C)Nc2ncnn21 (stereo unspecified)
  A = -2% | B = 0% | C = -4% | D = x | E = -3% | F = 1%

(36) COc1ccc(NC(=O)Cc2csc(COc3cccc(C)c3)n2)c(OC)c1
  A = -9% | B = 5% | C = -2% | D = x | E = u | F = -2%

(37) Cc1ccn(CCC(=O)NC2CCCc3c2cnn3-c2cccc(C)c2C)n1 (stereo unspecified)
  A = 0% | B = 0% | C = -1% | D = -4% | E = -16% | F = -3%

(39) CC(c1nc2ccccc2[nH]1)n1c(=O)c(-c2cccnc2)nc2ccccc21 (stereo unspecified)
  A = x | B = x | C = -23% | D = x | E = x | F = x
